Assay outcomes as filed in PubChem BioAssay.
TDP1 block – TDP1 (human) enzyme inhibition | Q9NUW8 | recombinant TDP1, AlphaScreen DNA substrate cleavage | Potency, µM (doses to about 130 µM), for the others: at the highest dose activity change, negative = inhibition, most hits filed as inhibitors | actives 0.28% (n = 350,000); also: potency is read from the fitted curve at half-maximal effect; % is scaled to controls: 0 for no effect and ±100 for the full control effect; nearly all actives have a fitted effect of over 40% in size
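E. coli-derived human Tdp1, 1 nM final. Cpd preinc 15 min RT; substrate 15 nM final, 5 min RT; AS bead mix 10 ug/ml final, 10 min RT. Signal loss = tyrosine-FITC cleavage. No-enzyme wells = max signal.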
miR-21 reporter – raises the signal of a miR-21 reporter; AID 2288; 340,000 tested, under 10 active; Potency, µM (doses to about 38.3 µM), inactives show at the top dose reporter change, positive = more light; HeLa miR-21 FLuc reporter, luciferase, 48 h; active = well fitted rising curve with a large enough effect; inconclusive = small, poorly fitted or top-dose-only effect; inactive = no such curve, though single readings can be large or run the other way;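 note: % of control where 0% means no effect; miR-21 action dims this reporter so a rising signal means less miR-21 action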
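HeLa cells stably expressing CMV-driven firefly luciferase with a downstream miR-21 binding sequence, endogenously expressing miR-21, were treated with titrations (up to about 40uM final) for 48 hours at 37 degree Celsius. Luciferase luminescence was read after lysis.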
uPA surface inh – cell surface uPA generation inhibition; cell surface uPA generation assay, qHTS; Potency, µM (doses to about 38.3 µM), without a hit: at the top dose activity change, negative = inhibition, usual class: inhibitors; actives 0.31% (n = 330,000); AID 540303; active = well fitted inhibition curve with a large enough effect; inconclusive = small, poorly fitted or top-dose-only effect; inactive = no such curve, though single readings can be large or run the other way; tested in mouse RAW 264.7 cells; also: potency is read from the fitted curve at half-maximal effect; % is scaled to controls: 0 for no effect and ±100 for the full control effect; nearly all actives have a fitted effect of over 55% in size
DT40 TDP1 no CPT – qHTS for Inhibitors of human tyrosyl-DNA phosphodiesterase 1 (TDP1): qHTS in cells in absence of CPT; actives 15% (n = 420,000); DT40 Tdp1-/- hTDP1 cells, no CPT, ATP luminescence, 48 h; AID 686978, 2013; Potency, µM (series often up to 46.2 µM), inactives show at the top dose activity change, negative = growth inhibition, usual class: inhibitors; also: potency is read from the fitted curve at half-maximal effect; % is scaled to controls: 0 for no effect and ±100 for the full control effect; nearly all actives have a fitted effect of over 55% in size
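Luminescent ATP content (CellTiter-Glo) served as the growth readout. Knockout chicken DT40 cells expressing human TDP1 were exposed to compounds without camptothecin for a minimum 48 hr at 37 °C.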
DT40 TDP1 CPT – DT40-hTDP1 cell growth loss with CPT | Potency, µM (top dose mostly 46.2 µM), without a hit: at the top dose activity change, negative = growth inhibition, most hits filed as inhibitors | AID 686979 | chicken DT40 Tdp1-/-;hTDP1 cells + 20 nM CPT, ATP luminescence, 48 h | actives 12% (n = 420,000); also: potency is read from the fitted curve at half-maximal effect; % is scaled to controls: 0 for no effect and ±100 for the full control effect; nearly all actives have a fitted effect of over 55% in size
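Cell growth measured by CellTiter-Glo luminescence after a minimum 48 h, 37 C compound exposure with 20 nM CPT in Tdp1-knockout DT40 cells stably expressing hTDP1, seeded 400/well; qHTS titration format.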
* hit, by the source's call; ? = inconclusive; . = not tested or not shown; [ ] = another dose, or the depositor's remark. A selection: hits, their analogues and other compounds. The true share with any hit is near 16%. Unless noted, calls follow the shape of the dose curve; as a rule, active = well fitted curve in the direction sought with a large enough effect; inconclusive = small, poorly fitted or top-dose-only effect, or another doubt; inactive = no such curve, though single readings can be large; an effect the other way counts as inactive or inconclusive.

Values run as follows: TDP1 block	miR-21 reporter	uPA surface inh	DT40 TDP1 no CPT	DT40 TDP1 CPT
Cc1ccc(C(=O)OC(C)C(=O)N(C)C2CCCCC2)cc1S(=O)(=O)N1CCCCC1 (configuration not stated)
→ 0.1%	.	-5.6%	23.1µM*	?
Cc1ccc(C(=O)Nc2cccc(O)c2)cc1S(=O)(=O)N1CCCCCC1
→ 0.0%	-34.2%	-15.6%	1.16µM*	29.1µM*
O=C(O)c1cccc(NC(=O)c2ccc(Cl)c(S(=O)(=O)N3CCCCCC3)c2)c1
→ -3.4%	-32.5%	6.31µM*	-0.7%	5.7%
COC(=O)c1ccc(COC(=O)c2ccc(C)c(S(=O)(=O)N3CCCCC3)c2)cc1
→ 2.0%	.	-2.3%	?	29.1µM*
NS(=O)(=O)c1ccc(NC(=O)COC(=O)Cc2ccc(Cl)cc2)cc1
→ -13.7%	-2.0%	0.5%	2.2%	5.2%
CC(C)(C)OC(=O)NCCCCC1=CC2=CC(=O)C(C)(OC(=O)c3ccco3)C(=O)C2=CO1 (configuration not stated)
→ 1.9%	.	.	.	.
O=C(NCc1nc2ccccc2[nH]1)c1ccc(Cl)c(S(=O)(=O)N2CCCC2)c1
→ 1.0%	0.0%	9.5%	?	-26.5%
CCCn1c(NC(=O)c2ccc(Cl)c(S(=O)(=O)N3CCCC3)c2)nc2ccccc21
→ 10.5%	?	-10.4%	16.4µM*	23.1µM*
COc1ccc(CCNC(=O)/C(C#N)=C2\N=C(NC(=O)c3ccco3)c3ccccc32)cc1
→ 0.0%	-3.3%	-0.2%	16.4µM*	?
CNC[C@H](O)[C@H](O)[C@H](O)[C@H](O)CO
→ 10.8%[21 µM]	.	.	.	.
ClCCCc1cn(C[C@H]2CC[C@@H]([C@@H]3CC[C@H](Cn4cc(CCCCl)nn4)O3)O2)nn1
→ .	0.7%	0.2%	5.1%	?
O=C(Nc1ccc(S(=O)(=O)N2CCCCC2)cc1)c1cccnc1Cl
→ -4.8%	.	3.4%	?	?
CC(C)Sc1ncc(Cl)c(C(=O)Nc2ccc(S(=O)(=O)N3CCCCC3)cc2)n1
→ 2.3%	12.9%	.	18.4µM*	18.4µM*
CC1CCCN(S(=O)(=O)c2ccc(NC(=O)c3nc(SC(C)C)ncc3Cl)cc2)C1 (configuration not stated)
→ 0.0%	?	.	13µM*	8.2µM*
CCCSc1ncc(Cl)c(C(=O)Nc2ccc(CC)cc2)n1
→ -8.6%	-8.1%	.	-21.6%	16.1%
CSc1ncc(Cl)c(C(=O)Nc2ccc(S(=O)(=O)Nc3nccc(C)n3)cc2)n1
→ 4.8%	-27.2%	-7.8%	10.3µM*	?
CCSc1ncc(Cl)c(C(=O)Nc2ccc(S(=O)(=O)N3CCCCC3)cc2)n1
→ 6.1%	?	.	11.6µM*	20.6µM*
Cc1ccnc(NS(=O)(=O)c2ccc(NC(=O)c3nc(SC(C)C)ncc3Cl)cc2)n1
→ 2.3%	-11.3%	.	?	-15.5%
Cc1ccc(CNC(=O)C2(S(=O)(=O)c3ccc(C)cc3)CC2)cc1
→ 2.6%[0.0935 µM]	0.6%	-0.8%	-21.3%	?
CCOC(=O)C1=C(C)N=c2s/c(=C\c3ccc(O)c([N+](=O)[O-])c3)c(=O)n2C1c1ccccc1OC (configuration not stated)
→ .	-1.7%	2.9%	18.4µM*	-16.8%
CCOC(=O)C1=C(C)N=c2s/c(=C\c3ccc(OCC(=O)O)cc3)c(=O)n2C1c1ccccc1OC (configuration not stated)
→ .	-0.3%	1.5%	-22.4%	-10.3%
CCOC(=O)C1=C(c2ccccc2)N=c2s/c(=C\c3cc(OC)c(OC)c(OC)c3)c(=O)n2C1c1cccs1 (configuration not stated)
→ -7.9%	-1.5%	2.0%	6.51µM*	?
COc1ccc(/C=c2/sc3n(c2=O)C(c2ccccc2OC)C2=C(N=3)c3ccccc3CC2)cc1O (configuration not stated)
→ 6.7%	21.4%	-0.6%	23.1µM*	29.1µM*
COc1ccc(C2C(C(C)=O)=C(C)N=c3s/c(=C\c4ccco4)c(=O)n32)c(OC)c1 (configuration not stated)
→ 8.3%	-9.4%	2.5%	-15.4%	8.2µM*
CCOC(=O)C1=C(C)N=c2s/c(=C/c3cccc([N+](=O)[O-])c3O)c(=O)n2C1c1ccc(OC)cc1OC (configuration not stated)
→ .	4.0%	1.6%	?	?
CCOC(=O)C1=C(C)n2c(s/c(=C/c3cccc([N+](=O)[O-])c3)c2=O)=NC1c1ccc(O)c(OC)c1 (configuration not stated)
→ 0.0%	-3.1%	.	16.4µM*	16.4µM*
O=C(NCCCN1CCN(Cc2ccccc2)CC1)C1CCN(S(=O)(=O)N2CCC3(CC2)OCCO3)CC1
→ 7.9%	7.7%	-14.3%	-11.3%	-12.1%
COC(=O)C1=C(N)N(c2ccccc2C(F)(F)F)C2=C(C(=O)CCC2)C1c1ccc2c(c1)OCO2 (configuration not stated)
→ 0.0%	-10.4%	7.4%	?	23.1µM*
Cc1nc(C(=O)Nc2ccccc2)sc1C(=O)Nc1ccccc1
→ .	-54.3%	6.5%	?	18.4µM*
Cc1nc(-c2ccccc2)sc1C(=O)Nc1ccc(S(N)(=O)=O)cc1
→ .	12.5%	2.7%	13µM*	-24.7%

Copied from the results shown, two compounds:
Values run as follows: TDP1 block	miR-21 reporter	uPA surface inh	DT40 TDP1 no CPT	DT40 TDP1 CPT
Cc1nc(C(=O)Nc2ccccc2)sc1C(=O)Nc1ccccc1
→ .	-54.3%	6.5%	?	18.4µM*
Cc1nc(-c2ccccc2)sc1C(=O)Nc1ccc(S(N)(=O)=O)cc1
→ .	12.5%	2.7%	13µM*	-24.7%

(continued)
smiles	TDP1 block	miR-21 reporter	uPA surface inh	DT40 TDP1 no CPT	DT40 TDP1 CPT
Cc1nc(-c2ccccc2)sc1C(=O)Nc1ccccc1F	.	-40.7%	2.0%	-21.2%	-1.3%
CCCCn1c(SCC(=O)Nc2cc(C(F)(F)F)cc(C(F)(F)F)c2)nnc1C(CC)N(C)C (configuration not stated)	5.4%	-11.7%	-1.5%	20.6µM*	23.1µM*
O=C(Nc1ccccc1)c1nc[nH]c1C(=O)NCCNC(=O)c1[nH]cnc1C(=O)Nc1ccccc1	-0.5%	.	2.4%	18.4µM*	13µM*
C[C@@H](NC(=O)c1[nH]cnc1C(=O)Nc1ccccc1F)c1ccccc1	.	.	.	?	-101.4%
O=C(Nc1ccccc1)c1nc[nH]c1C(=O)NCCCCNC(=O)c1[nH]cnc1C(=O)Nc1ccccc1	1.6%	.	-3.3%	11.6µM*	6.51µM*
CN(CCN(C)C(=O)c1[nH]cnc1C(=O)Nc1ccccc1)C(=O)c1[nH]cnc1C(=O)Nc1ccccc1	1.1%	.	-2.3%	?	-3.1%
O=C(Nc1ccccc1)c1nc[nH]c1C(=O)Nc1ccccc1F	.	.	.	11.6µM*	?
O=C(Nc1cccc(Cl)c1)c1nc[nH]c1C(=O)NCCCNC(=O)c1[nH]cnc1C(=O)Nc1cccc(Cl)c1	-3.2%	.	-1.0%	?	-29.4%
N#CCCn1c(=O)c(-c2ccc(F)cc2)nc2cnc(Oc3ccccc3)nc21	.	.	.	-18.7%	12.4%
Cc1ccc(-c2nn(-c3ccccc3)cc2/C=N/NC(=O)c2ccncc2)o1	6.0%	-1.9%	-8.0%	23.1µM*	?

Of the compounds above, 3 have a nitro group on carbon:
smiles	TDP1 block	miR-21 reporter	uPA surface inh	DT40 TDP1 no CPT	DT40 TDP1 CPT
CCOC(=O)C1=C(C)N=c2s/c(=C\c3ccc(O)c([N+](=O)[O-])c3)c(=O)n2C1c1ccccc1OC (configuration not stated)	.	-1.7%	2.9%	18.4µM*	-16.8%
CCOC(=O)C1=C(C)N=c2s/c(=C/c3cccc([N+](=O)[O-])c3O)c(=O)n2C1c1ccc(OC)cc1OC (configuration not stated)	.	4.0%	1.6%	?	?
CCOC(=O)C1=C(C)n2c(s/c(=C/c3cccc([N+](=O)[O-])c3)c2=O)=NC1c1ccc(O)c(OC)c1 (configuration not stated)	0.0%	-3.1%	.	16.4µM*	16.4µM*
